Data reported in PubChem BioAssay AID1347075 (National Center for Advancing Translational Sciences (NCATS), 2019).
The list shows a part of the results, in another mix than the full data. Records with an inconclusive call do not appear. Active and inactive are the calls of the source. Calls come from the whole dose curve; as a rule, active = well fitted cell-killing curve with a large enough effect; inconclusive = small, poorly fitted or top-dose-only effect, or effect the other way; inactive = flat fitted curve, though single readings scatter.

assay: qHTS assay for MDR1-selective chemotherapeutics: Primary screen using the parental adenocarcinoma cell KB-3-1; settings: KB-3-1 viability, CellTiter-Glo ATP luminescence, 72 h; series mostly up to 46.1 µM; activity change, negative = cytotoxic: at the top concentration; note: nearly all actives have a fitted effect of over 60% in size
In short: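 Viability of parental KB-3-1 cells, measured by CellTiter-Glo luminescence, followed a 72 h incubation at 37 °C with pinned compounds in phenol-red-free DMEM containing 10% FBS.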
% is set by controls: 0 for no effect and ±100 for the full control effect; potency is the fitted concentration of half-maximal effect.

SMILES	activity change, negative = cytotoxic	Potency
O=C(OC1CN2CCC1CC2)c1cccc(Cl)c1 (centres undefined)	inactive: 4.71%	–
C(Cc1nn[nH]n1)Cc1nn[nH]n1	inactive: 16.9%	–
Nc1ccc([As](=O)(O)c2ccc([N+](=O)[O-])cc2)cc1	inactive: 10.2%	–
O=P(Nc1ccccn1)(c1ccc(Br)cc1)c1ccc(Br)cc1	–	active: 23.1 µM
CN(C)C1(CNC(=O)c2ccc(Cl)c(S(N)(=O)=O)c2)CCCCC1	inactive: 19.1%	–
COc1ccc(N)c([N+](=O)[O-])c1[N+](=O)[O-]	inactive: -0.0278%	–
Nc1ccc(CCCCOc2ccccc2)cc1	inactive: 0.586%	–
O=P(Nc1nc2ccccc2s1)(c1ccccc1)c1ccccc1	inactive: 2.24%	–
C[C@H]1OP(=O)(Oc2ccccc2)[C@H](O)[C@H](O)[C@H]1N=[N+]=[N-] (some centres undefined)	inactive: 6.91%	–
Cc1ccc(S(=O)(=O)N(CCCN)CCCc2c(C)nc(N)[nH]c2=O)cc1	inactive: 7.64%	–
O=P1(Nc2ncccn2)COc2ccccc2OC1	inactive: -10.3%	–
Nc1cccc([As](=O)(O)c2ccccc2)c1	inactive: 8.59%	–
Cc1ccc(OCC(=O)OC2CN3CCC2CC3)cc1 (centres undefined)	inactive: 1.23%	–
O=[As](O)(c1cccs1)c1cccs1	inactive: 10%	–
O=P1(Nc2ccc(Br)cn2)COc2ccccc2OC1	inactive: 3.08%	–
NS(=O)(=O)c1cccc(NC(=O)COC(=O)C(O)(c2ccccc2)c2ccccc2)c1	inactive: 0%	–
Cc1nn(-c2ccccc2)c2c1P(=O)(N1CCOCC1)N(C)C(c1ccccc1)=N2 (centres undefined)	inactive: -4.66%	–

SMILES	activity change, negative = cytotoxic	Potency
CC1CCC(C(C)C)C(OP(=O)(Nc2ccccn2)c2ccccc2)C1 (centres undefined)	–	active: 18.4 µM
Cc1ccc(C(=O)OC2CN3CCC2CC3)cc1 (centres undefined)	inactive: -19.3%	–
COc1cc([N+](=O)[O-])ccc1[N+](=O)[O-]	inactive: -17.3%	–
CN(C)C1(CNC(=O)c2ccc(S(C)(=O)=O)cc2)CCCCC1	inactive: -3.17%	–
O=C(/C=C/c1ccccc1)OC1CN2CCC1CC2 (centres undefined)	inactive: 9.31%	–
CCCC1OP(=O)(Nc2ccccc2)OCC1CC (centres undefined)	inactive: -0.496%	–
COc1ccccc1CNC(=O)COC(=O)C(O)(c1ccccc1)c1ccccc1	inactive: 5.41%	–
CC(C)/C=N\N=C(\N)N[N+](=O)[O-]	inactive: 9.36%	–
CN(C(=O)Cc1ccc(Cl)c(Cl)c1)[C@@H]1CCCC[C@H]1N1CCCC1	inactive: 0%	–
CC1(CBr)Cn2c(nc3ccccc3c2=O)S1 (centres undefined)	inactive: -1.01%	–
O=P1(Nc2ccccn2)COc2ccccc2OC1	inactive: -1.65%	–
CCOP(=O)(NC(=NC(C)c1ccccc1)NC(C)c1ccccc1)OCC (centres undefined)	inactive: 2.89%	–
CCOP(=O)(Nc1ccc(C)cn1)OCC	inactive: 0%	–
CN(CCCl)Cc1cc(Cl)c(NC2=NCCN2)c(Cl)c1	inactive: -0.16%	–
O=P1(N(CCCl)CCCl)NCCC(C(F)(F)F)O1 (centres undefined)	inactive: 2.02%	–
Clc1n[nH]nc1-c1nn[nH][15n]1	inactive: -0.156%	–
CC(C)(C)C(=O)NC(Sc1ncccn1)C(Cl)(Cl)Cl (centres undefined)	inactive: 8.02%	–
